Source: ChEMBL document CHEMBL1152029 (1997)

What was measured:
[1] = Mean survival time of treated group(T) and Mean survival time of control group(C) was measured using CD2F1 male mice at 200 mg/kg dose
[2] = test system: Mus musculus; test: The percent increase in life span was measured using CD2F1 male mice at 200 mg/kg dose
[3] = test system: Mus musculus; test: %Survival of compound was measured using CD2F1 male mice in group of ten at 200 mg/kg dose on day 30
[4] = test system: Mus musculus; test: Mean survival time of compound was measured using CD2F1 male mice in group of ten at 200 mg/kg dose on day 30

NCCCNCCSP(=O)(Oc1ccc(Cl)cc1)SCCNCCCN
Ratio [1]: 1.94 | ILS [2]: 170% | Survival [3]: 40% | MST [4]: 20
